{
  "source": "ChEMBL document CHEMBL1157539",
  "about": "“Thousands of chemical starting points for antimalarial lead identification” (Nature, 2010)",
  "tested_on": "HepG2",
  "experiment": "GSK_TCMDC: Percent inhibition of human HepG2 cell line. Test compounds present at 10uM.",
  "type": "functional",
  "note": "The list shows a part of the results, in another mix than the full data.",
  "data": [
    {"smiles": "COc1cc(C(=O)NC(SC2=NCCS2)C(Cl)(Cl)Cl)cc(OC)c1OC", "note": "(stereo unspecified)", "values": [
      {"measurement": "inhibition", "value": 4, "unit": "%"}
    ]}
  ]
}
